Data as given in publication PMC4926326, “Synthesis, Biological Activity, and Apoptotic Properties of NO-Donor/Enmein-Type ent-Kauranoid Hybrids” (International Journal of Molecular Sciences, 2016).

Test system: Bel-7402 hepatoma cell line
Test: MTT antiproliferative assay
Assay type: cell-based, human
Details: SI = IC50, L-02/IC50, Bel-7402
Method: The antiproliferative activity of 9a–i against four human cancer cell lines K562 leukemia cell line, MGC-803 gastric cancer cell line, CaEs-17 esophageal cancer cell line, and Bel-7402 hepatoma cell line, and human normal liver cells L-02 was evaluated by MTT assay (Table 2).
MTT assay was developed to monitor mammalian cell survival and proliferation in vitro [32]. CaEs-17 cells (K562, Bel-7402 and MGC-803 cells) from American Type Culture Collection (ATCC, Manassas, VA, USA) were cultivated in RPMI-1640 medium supplemented with 5% fetal bovine serum (v/v), 100 U/mL penicillin, and […] streptomycin. Cells (5 × 10^4 cell/mL) at the log phase of their growth cycle were added to each well of a 96-well plate (100 µL/well) and incubated for 24 h at 37 °C in a humidified atmosphere of 5% CO2. Then, cells were treated with or without test compounds in different concentrations. After 72 h, 5 mg/mL MTT solution (20 µL per well) was added. Cells were incubated at 37 °C. After 4 h, MTT solution was removed and DMSO was added to each well (150 µL). Ten minutes later at room temperature, the optical density (OD) values were measured at the wavelength of 490 nm on a Microplate Reader NO. 550 (BIO-RAD Instruments Inc., Hercules, CA, USA). In this experiment, 10 µg/mL of Taxol was used as the positive control and 0.1% DMSO was used as the negative reference.

For `C=C1C(=O)[C@@]23C(=O)O[C@H]4CCC(C)(C)[C@H]5[C@H](O)OC[C@@]45[C@@H]2CC[C@@H]1[C@H]3O` [Compound 8], which “SI (selectivity index)” value is on record?
Its value is 0.7.
